Results published in patent publication US20100317729A1 (GW Pharma Limited, priority 2007, published 2010).

Chains of the proteins cited; added tags and fusions are not shown.
UniProt P34972, whole entry: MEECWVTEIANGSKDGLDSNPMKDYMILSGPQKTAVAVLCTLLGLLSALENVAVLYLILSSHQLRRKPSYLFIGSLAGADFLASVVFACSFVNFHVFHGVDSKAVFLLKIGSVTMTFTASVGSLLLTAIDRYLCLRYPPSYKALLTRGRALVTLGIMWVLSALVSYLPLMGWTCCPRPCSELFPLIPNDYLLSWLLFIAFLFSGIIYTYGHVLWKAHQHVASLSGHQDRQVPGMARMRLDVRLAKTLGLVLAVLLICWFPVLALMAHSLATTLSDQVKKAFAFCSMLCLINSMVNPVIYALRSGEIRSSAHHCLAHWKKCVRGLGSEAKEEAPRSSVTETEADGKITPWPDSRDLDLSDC

What was measured:
hCB2 receptors [1] = target: T1, hCB2 receptors (Homo sapiens, UniProt P34972); test: [35S]GTPγS binding assay, CHO-hCB2 cell membranes; format: biochemical; details: read-out: Mean apparent KB
T1 construct: expressed in transfected cells; host or cells: CHO cells
Protocol: Nonspecific binding was measured in the presence of 30 μM GTPγS.
The concentrations of [^35S]GTPγS and GDP present in the assay varied depending on whether the assay was conducted with mouse brain or transfected cell membranes. When the assay was conducted with mouse brain membranes, 0.1 nM [^35S]GTPγS and 30 μM GDP were present, whereas the corresponding concentrations present when the assay was conducted with transfected cell membranes were 1 nM and 320 μM respectively.
Additionally, mouse brain membranes were preincubated for 30 minutes at 30° C. with 0.5 U ml^−1 adenosine deaminase to remove endogenous adenosine. […]
Net agonist-stimulated [^35S]GTPγS binding values were calculated by subtracting basal binding values (obtained in the absence of agonist) from agonist-stimulated values (obtained in the presence of agonist) as detailed elsewhere (Ross et al., 1999a).
The apparent dissociation constant (KB) values for antagonism of agonists by THCV in the vas deferens or [^35S]GTPγS binding assay have been calculated by Schild analysis from the concentration ratio, defined as the concentration of an agonist that elicits a response of a particular size in the presence of a competitive reversible antagonist at a concentration, B, divided by the concentration of the same agonist that produces an identical response in the absence of the antagonist. […]

hCB2 receptors [2] = target: T1, hCB2 receptors; test: Radioligand displacement assay, CHO-hCB2 cell membranes; format: binding; details: read-out: Ki-value for displacement of [3H]CP55940
Protocol: Binding was initiated by the addition of either the brain membranes (33 μg protein per tube) or the transfected hCB2 cells (25 μg protein per tube).
All assays were performed at 37° C. for 60 min before termination by addition of ice-cold wash buffer (50 mM Tris buffer, 1 mg ml^−1 bovine serum albumin, pH 7.4) and vacuum filtration using a 24-well sampling manifold and GF/B filters that had been soaked in wash buffer at 4° C. for at least 24 h.
Each reaction tube was washed six times with a 1.2 ml aliquot of wash buffer. The filters were oven-dried for 60 min and then placed in 5 ml of scintillation fluid. Radioactivity was quantified by liquid scintillation spectrometry.
Specific binding was defined as the difference between the binding that occurred in the presence and absence of 1 μM unlabelled CP55940.
Values are expressed as means and variability as s.e.mean or as 95% confidence limits.

Which Kb (hCB2 receptors [1]) does the source give for `C=C(C)[C@@H]1CCC(C)=C[C@H]1c1c(O)cc(CCCCC)cc1O` [CBD, cannabidiol] here?
The Kb was 0.0651 µM.

And the Ki (hCB2 receptors [2])?
Its Ki is 4.2 µM.
